The test deals with Muscarinic acetylcholine receptor M2 (Homo sapiens, UniProt P08172). The test can be described thus: Displacement of [3H]-AFDX-384 from human muscarinic M2 receptor expressed in CHO-K1 cells. The test is classed as cell-based. Background: Displacement assays read how much labelled ligand stays bound in the presence of the test substance.

Sequences of proteins named here, by UniProt entry; tags and fusion partners are left off.
UniProt P08172, whole entry: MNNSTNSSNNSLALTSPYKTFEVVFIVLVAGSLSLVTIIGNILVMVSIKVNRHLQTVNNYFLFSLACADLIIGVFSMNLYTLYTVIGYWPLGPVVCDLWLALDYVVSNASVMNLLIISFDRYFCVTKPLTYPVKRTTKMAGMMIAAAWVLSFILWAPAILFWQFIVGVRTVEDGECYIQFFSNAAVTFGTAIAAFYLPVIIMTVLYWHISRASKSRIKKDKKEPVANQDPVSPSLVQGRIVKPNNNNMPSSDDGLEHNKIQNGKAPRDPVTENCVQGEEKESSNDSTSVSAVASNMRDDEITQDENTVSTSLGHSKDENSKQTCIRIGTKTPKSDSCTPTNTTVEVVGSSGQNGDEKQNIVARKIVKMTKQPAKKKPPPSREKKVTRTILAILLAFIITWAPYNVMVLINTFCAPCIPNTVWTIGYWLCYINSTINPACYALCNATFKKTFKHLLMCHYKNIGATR

pKi: −log10 of the molar value.

Broadly, the pKi is the negative decadic logarithm of the Ki, by convention in mol/L. Higher therefore signals a small Ki.

`CCCCCCOc1nsnc1C1=CCCN(C)C1` [XANOMELINE] had a pKi of 6.92.

For the origin of these results see ChEMBL document CHEMBL1240489, “Discovery of N-{1-[3-(3-oxo-2,3-dihydrobenzo[1,4]oxazin-4-yl)propyl]piperidin-4-yl}-2-phenylacetamide (Lu AE51090): an allosteric muscarinic M1 receptor agonist with unprecedented selectivity and procognitive potential” (J Med Chem, 2010).
